CycPeptMPDB entries from one study

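Lipid, pH, incubation time, direction and concentration are not recorded in the data file. Other peptides of the study may be missing here. Peptides that the database sets to -10, its floor, are left out.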

PAMPA measures passive passage through an artificial lipid membrane. Caco-2 values are permeabilities across monolayers of Caco-2 human intestinal cells. Values are log10 P with P in cm/s, so -5 is more permeable than -7.

Listed for CC(C)C[C@@H]1C(=O)N[C@@H](Cc2ccccc2)C(=O)NCCC[C@H](C)C(=O)N[C@@H](C)C(=O)N1C: PAMPA -5.75 (log10 cm/s).
Listed for CC(C)C[C@@H]1NC(=O)[C@H](C)NC(=O)CC[C@H](C)CNC(=O)CN(Cc2ccccc2)C1=O: PAMPA -6.98 (log10 cm/s) and Caco-2 -4.81 (log10 cm/s).
Listed for CC(C)C[C@@H]1NC(=O)[C@H](C)NC(=O)CCC[C@H](C)NC(=O)[C@H](Cc2ccccc2)NC1=O: PAMPA -7.49 (log10 cm/s) and Caco-2 -5.51 (log10 cm/s).
Listed for CC(C)C[C@@H]1NC(=O)[C@H](C)NC(=O)[C@H](C)CCCNC(=O)CN(Cc2ccccc2)C1=O: PAMPA -7.16 (log10 cm/s) and Caco-2 -5.05 (log10 cm/s).
Listed for CC(C)C[C@@H]1NC(=O)[C@H](C)NC(=O)CCC[C@@H](C)NC(=O)[C@H](Cc2ccccc2)NC1=O: PAMPA -7.05 (log10 cm/s) and Caco-2 -5.04 (log10 cm/s).
Listed for CC(C)C[C@@H]1NC(=O)CN(C)C(=O)CCC[C@H](C)NC(=O)[C@H](Cc2ccccc2)NC1=O: PAMPA -6.86 (log10 cm/s) and Caco-2 -5.25 (log10 cm/s).
Listed for CC(C)C[C@@H]1NC(=O)[C@H](C)NC(=O)[C@@H](C)CCCNC(=O)CN(Cc2ccccc2)C1=O: PAMPA -6.31 (log10 cm/s) and Caco-2 -4.75 (log10 cm/s).
Listed for CC(C)C[C@@H]1NC(=O)CN(C)C(=O)[C@H](C)CCCNC(=O)[C@H](Cc2ccccc2)NC1=O: PAMPA -6.69 (log10 cm/s) and Caco-2 -4.86 (log10 cm/s).
Listed for CC(C)C[C@@H]1NC(=O)[C@H](C)NC(=O)C[C@H](C)CCNC(=O)CN(Cc2ccccc2)C1=O: PAMPA -7.49 (log10 cm/s) and Caco-2 -5.00 (log10 cm/s).
Listed for CC(C)C[C@@H]1NC(=O)[C@H](C)NC(=O)CCCCNC(=O)CN(Cc2ccccc2)C1=O: PAMPA -7.18 (log10 cm/s) and Caco-2 -4.74 (log10 cm/s).
Listed for CC(C)CN1CC(=O)N[C@@H](Cc2ccccc2)C(=O)NCCCCC(=O)N[C@@H](C)C1=O: PAMPA -6.38 (log10 cm/s) and Caco-2 -5.54 (log10 cm/s).
Listed for CC(C)C[C@@H]1NC(=O)[C@H](C)NC(=O)CCCCNC(=O)[C@H](Cc2ccccc2)NC1=O: PAMPA -7.00 (log10 cm/s) and Caco-2 -5.45 (log10 cm/s).
Listed for CC(C)C[C@@H]1NC(=O)CN(C)C(=O)CCCCNC(=O)[C@H](Cc2ccccc2)NC1=O: PAMPA -7.43 (log10 cm/s) and Caco-2 -5.32 (log10 cm/s).
Listed for CC(C)C[C@@H]1NC(=O)[C@H](C)NC(=O)C[C@H](C)CCNC(=O)[C@H](Cc2ccccc2)NC1=O: PAMPA -6.75 (log10 cm/s) and Caco-2 -4.94 (log10 cm/s).
Listed for CC(C)C[C@@H]1NC(=O)CN(C)C(=O)CCC[C@@H](C)NC(=O)[C@H](Cc2ccccc2)NC1=O: PAMPA -7.18 (log10 cm/s) and Caco-2 -5.23 (log10 cm/s).
Listed for CC(C)C[C@H]1C(=O)N[C@@H](Cc2ccccc2)C(=O)NCCC[C@H](C)C(=O)N[C@@H](C)C(=O)N1C: PAMPA -6.01 (log10 cm/s).
Listed for CC(C)CN1CC(=O)N[C@@H](Cc2ccccc2)C(=O)NC[C@H](C)CCC(=O)N[C@@H](C)C1=O: PAMPA -5.92 (log10 cm/s) and Caco-2 -4.80 (log10 cm/s).
Listed for CC(C)C[C@@H]1NC(=O)[C@H](C)NC(=O)CCC[C@H](C)NC(=O)CN(Cc2ccccc2)C1=O: PAMPA -6.65 (log10 cm/s) and Caco-2 -5.24 (log10 cm/s).
Listed for CC(C)CN1CC(=O)N[C@@H](Cc2ccccc2)C(=O)N[C@H](C)CCCC(=O)N[C@@H](C)C1=O: PAMPA -5.39 (log10 cm/s) and Caco-2 -4.53 (log10 cm/s).

Extract of 3 entries:

SMILES	PAMPA (log10 cm/s)	Caco-2 (log10 cm/s)
CC(C)C[C@@H]1NC(=O)CN(C)C(=O)CCC[C@@H](C)NC(=O)[C@H](Cc2ccccc2)NC1=O	-7.18	-5.23
CC(C)C[C@@H]1NC(=O)[C@H](C)NC(=O)CCC[C@H](C)NC(=O)[C@H](Cc2ccccc2)NC1=O	-7.49	-5.51
CC(C)CN1CC(=O)N[C@@H](Cc2ccccc2)C(=O)NC[C@H](C)CCC(=O)N[C@@H](C)C1=O	-5.92	-4.80

Source: CycPeptMPDB (Li et al. 2023), which took these values from Comeau et al. 2021, doi:10.1021/acs.jmedchem.0c02036.